Values of other authors in article PMC6527222 (PLoS ONE, 2019).

Biological target: α2B-AR
Settings: given negative; cited from earlier work

## COc1ccccc1OCCNCC(O)COc1cccc2[nH]c3ccccc3c12 (stereo not shown) [Carvedilol]
  pKi at α2B: -5.5 ± 0.1
